Here are results for 10 compounds from PubChem BioAssay (Tox21).

The chains behind the UniProt entries cited, without tags or fusion partners. Where a name states a change or a piece, a line headed by the entry shows the natural chain unless it says otherwise.
UniProt P03372, whole entry, looked up: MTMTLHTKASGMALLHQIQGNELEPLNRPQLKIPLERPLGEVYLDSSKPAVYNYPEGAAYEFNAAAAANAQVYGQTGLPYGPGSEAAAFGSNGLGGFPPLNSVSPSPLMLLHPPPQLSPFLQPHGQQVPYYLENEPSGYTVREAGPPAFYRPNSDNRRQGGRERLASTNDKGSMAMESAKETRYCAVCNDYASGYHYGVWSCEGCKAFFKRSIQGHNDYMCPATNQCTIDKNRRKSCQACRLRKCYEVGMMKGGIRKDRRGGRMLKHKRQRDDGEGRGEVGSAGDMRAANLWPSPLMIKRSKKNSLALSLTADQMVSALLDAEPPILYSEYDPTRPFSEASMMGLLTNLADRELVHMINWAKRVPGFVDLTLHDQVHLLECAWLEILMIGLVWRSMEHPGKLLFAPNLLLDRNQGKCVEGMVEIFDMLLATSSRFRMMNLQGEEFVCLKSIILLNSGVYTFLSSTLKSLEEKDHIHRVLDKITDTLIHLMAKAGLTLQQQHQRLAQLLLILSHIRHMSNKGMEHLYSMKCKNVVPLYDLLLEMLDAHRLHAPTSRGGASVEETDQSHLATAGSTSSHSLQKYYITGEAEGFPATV
UniProt P34981: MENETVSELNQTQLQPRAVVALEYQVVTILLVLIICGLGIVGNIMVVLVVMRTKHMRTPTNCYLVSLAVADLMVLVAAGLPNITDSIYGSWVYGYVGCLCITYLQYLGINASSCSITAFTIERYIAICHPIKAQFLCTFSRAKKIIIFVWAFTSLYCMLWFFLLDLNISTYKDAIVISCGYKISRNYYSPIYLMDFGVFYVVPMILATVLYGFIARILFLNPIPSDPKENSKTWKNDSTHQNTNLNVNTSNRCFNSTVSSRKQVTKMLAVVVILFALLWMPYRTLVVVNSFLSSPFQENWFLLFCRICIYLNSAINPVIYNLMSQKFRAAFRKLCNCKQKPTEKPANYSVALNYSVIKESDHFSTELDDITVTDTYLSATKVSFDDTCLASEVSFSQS

Structures are written as SMILES. Values joined by “and” are separate entries in the source; they are usually repeats but may differ in a detail not shown here. Identical values can stand only once. This list holds what a sample rich in hits left over. Active and inactive are the calls of the source. Unless noted, calls follow the shape of the full dose curve.
% is scaled to controls: 0 for no effect and ±100 for the full control effect.

The first experiment addresses Estrogen receptor (Homo sapiens) (UniProt P03372). Nature of the experiment: qHTS assay to identify small molecule agonists of the estrogen receptor alpha (ER-alpha) signaling pathway in the presence of an antagonist (AID 1259383). Also: top concentration of the series differs between compounds; nearly all actives have a fitted effect of over 15% in size. To be noted: VM7Luc4E2 cells, ERE-luciferase, +ICI-182,780, 22 h; at 92.4 µM (top of the series). On the technique in general: qHTS replaces the single test concentration by a dilution series.
On to `Clc1ccc(COC(Cn2ccnc2)c2ccc(Cl)cc2Cl)cc1` (stereo not given), for which the activation was inactive: -14.3% and inactive: -16.1%.

Take `CCCCCCCCCCCCCCCCn1cc[n+](C)c1`: the activation is inactive: -3.81% [middle of 4 runs]. Take `OC[P+](CO)(CO)CO`: the activation was inactive: 0.19% and inactive: 0.305%. For the compound `CCN`, the activation is inactive: -1.66%.

On to `CCCn1cc[n+](C)c1`, for which the activation was inactive: -1.2% and inactive: 0.816% and inactive: 1.36%. For the compound `CCCCCCCCCCn1cc[n+](C)c1`, the activation was inactive: -11.1% [middle of 6 runs]. Regarding `Nc1nc(N)c(N)c(N)n1`, the activation was inactive: 1.47%.

The next experiment deals with Thyrotropin-releasing hormone receptor (Homo sapiens) (UniProt P34981). Nature of the experiment: qHTS assay to identify small molecule antagonists of the thyrotropin-releasing hormone receptor (TRHR) signaling pathway (AID 1346877; active = well fitted inhibition curve with a large enough effect in the repeat runs, not every such curve was filed as active). The following applies: TRHR-HEK293, TRH-induced calcium fluorescence, antagonist mode; at 23.6 µM (top of the series) unless noted.
On to `CC[C@H](O)C(C[C@H](C)N(C)C)(c1ccccc1)c1ccccc1`, for which the activity, negative = inhibition was inactive: 0.0404% [at 51.3 µM]. Same read-out and setting: in the case of `C#CC(O)(C=CCl)CC` (stereo not given) it was inactive: -0.171%; in that of `c1ccc2c(c1)Sc1ccccc1N2CC1CN2CCC1CC2` (stereo not given), inactive: -6.53%.
